The values that follow are results of earlier work, collected in patent publication US20250177405A1, “METHODS OF TREATING NEUROLOGICAL AND CARDIOVASCULAR CONDITIONS” (ASTROCYTE PHARMACEUTICALS, INC., priority 2021, published 2025).

Sequences of proteins named here, by UniProt entry; tags and fusion partners are left off.
UniProt P30543, whole entry: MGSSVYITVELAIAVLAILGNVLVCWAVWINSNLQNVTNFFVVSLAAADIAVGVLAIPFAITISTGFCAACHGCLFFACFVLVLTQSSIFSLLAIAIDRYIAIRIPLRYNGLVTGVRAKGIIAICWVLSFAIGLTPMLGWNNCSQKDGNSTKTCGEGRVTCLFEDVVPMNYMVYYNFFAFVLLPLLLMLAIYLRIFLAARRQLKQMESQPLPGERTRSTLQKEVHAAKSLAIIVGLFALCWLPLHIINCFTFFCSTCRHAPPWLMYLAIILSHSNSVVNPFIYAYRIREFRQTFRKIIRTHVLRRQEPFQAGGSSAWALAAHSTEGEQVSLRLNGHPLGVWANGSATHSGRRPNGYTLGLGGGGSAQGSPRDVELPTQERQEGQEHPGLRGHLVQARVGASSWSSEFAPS

Structures are written as SMILES.

For this data set, the target named is A2a (Rattus norvegicus, UniProt P30543). To be noted: read-out: A2a affinity; cited from earlier work.

As for `C[C@H](Cc1ccccc1)Nc1ncnc2c1ncn2[C@@H]1O[C@H](CO)[C@@H](O)[C@H]1O` [Compound I-25, N^6-(L-2-Phenylisopropyl)adenosine], the Ki was 220 nM.
